# pIC50: −log10 of the molar value.
# The chains behind the UniProt entries cited, without tags or fusion partners.
# UniProt Q15746, whole entry: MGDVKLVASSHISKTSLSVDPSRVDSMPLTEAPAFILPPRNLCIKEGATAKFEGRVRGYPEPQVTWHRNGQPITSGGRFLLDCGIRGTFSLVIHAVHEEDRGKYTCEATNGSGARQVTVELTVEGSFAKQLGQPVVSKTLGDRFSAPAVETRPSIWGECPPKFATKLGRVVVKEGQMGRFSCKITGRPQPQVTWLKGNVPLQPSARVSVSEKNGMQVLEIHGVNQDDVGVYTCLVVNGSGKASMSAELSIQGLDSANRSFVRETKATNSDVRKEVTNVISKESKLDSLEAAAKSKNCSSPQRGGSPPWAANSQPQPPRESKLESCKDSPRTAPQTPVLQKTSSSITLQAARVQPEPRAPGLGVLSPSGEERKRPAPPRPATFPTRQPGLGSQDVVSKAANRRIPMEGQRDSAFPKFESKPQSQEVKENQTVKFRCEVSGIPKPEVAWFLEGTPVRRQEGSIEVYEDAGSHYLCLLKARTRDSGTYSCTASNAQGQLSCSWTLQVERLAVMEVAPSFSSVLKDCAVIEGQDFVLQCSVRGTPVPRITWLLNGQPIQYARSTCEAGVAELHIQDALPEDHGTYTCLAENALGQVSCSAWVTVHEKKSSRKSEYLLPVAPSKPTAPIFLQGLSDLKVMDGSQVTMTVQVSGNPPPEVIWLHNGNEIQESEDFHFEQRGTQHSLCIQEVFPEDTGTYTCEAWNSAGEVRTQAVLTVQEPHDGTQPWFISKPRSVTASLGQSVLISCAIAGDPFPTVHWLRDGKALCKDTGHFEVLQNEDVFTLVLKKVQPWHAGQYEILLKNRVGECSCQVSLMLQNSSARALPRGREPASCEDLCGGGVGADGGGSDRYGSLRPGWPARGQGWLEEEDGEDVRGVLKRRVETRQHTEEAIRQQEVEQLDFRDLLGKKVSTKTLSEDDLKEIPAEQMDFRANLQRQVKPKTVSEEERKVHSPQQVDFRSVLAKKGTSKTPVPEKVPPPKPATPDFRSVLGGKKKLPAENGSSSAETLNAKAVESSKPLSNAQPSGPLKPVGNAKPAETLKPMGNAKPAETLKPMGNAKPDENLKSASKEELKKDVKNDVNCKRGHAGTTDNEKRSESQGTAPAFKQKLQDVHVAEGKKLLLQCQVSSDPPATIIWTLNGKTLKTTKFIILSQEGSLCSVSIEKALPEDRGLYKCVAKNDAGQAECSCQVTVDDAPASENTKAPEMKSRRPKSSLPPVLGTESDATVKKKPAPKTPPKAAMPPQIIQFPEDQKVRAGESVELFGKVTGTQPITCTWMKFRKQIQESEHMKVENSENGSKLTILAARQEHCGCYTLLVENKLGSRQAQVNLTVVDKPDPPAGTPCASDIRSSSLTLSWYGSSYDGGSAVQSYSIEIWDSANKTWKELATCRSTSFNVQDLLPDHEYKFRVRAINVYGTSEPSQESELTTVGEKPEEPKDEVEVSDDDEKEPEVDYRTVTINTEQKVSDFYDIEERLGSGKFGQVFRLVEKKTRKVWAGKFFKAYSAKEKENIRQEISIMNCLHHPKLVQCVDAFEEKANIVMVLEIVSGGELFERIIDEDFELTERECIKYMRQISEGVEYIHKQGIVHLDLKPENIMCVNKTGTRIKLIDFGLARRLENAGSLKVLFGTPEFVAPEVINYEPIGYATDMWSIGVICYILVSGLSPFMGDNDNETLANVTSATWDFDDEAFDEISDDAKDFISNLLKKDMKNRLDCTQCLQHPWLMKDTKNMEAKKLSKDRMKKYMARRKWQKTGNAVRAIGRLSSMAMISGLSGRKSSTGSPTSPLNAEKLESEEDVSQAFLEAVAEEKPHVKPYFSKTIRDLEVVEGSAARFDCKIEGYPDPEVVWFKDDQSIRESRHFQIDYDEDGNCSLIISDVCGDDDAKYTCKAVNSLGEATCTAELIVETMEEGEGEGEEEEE
# Molecular target: Myosin light chain kinase, smooth muscle (Homo sapiens, UniProt Q15746)
# Experiment: Inhibition of Myosin light chain kinase 1 (MLCK1)
compound,measurement,value
COC(=O)[C@]1(O)C[C@H]2O[C@]1(C)n1c3ccccc3c3c4c(c5c6ccccc6n2c5c31)C(=O)NC4,pIC50,7.60

# Source: ChEMBL document CHEMBL1135387, “Synthesis and kinase inhibitory activity of 3'-(S)-epi-K-252a” (Bioorg Med Chem Lett, 2002)
